The text below walks through data of patent US4868203A, “Bacterial substance and pharmaceutical composition thereof” (Kabushikikaisha Ueno Seiyaku Oyo Kenkyujo, priority 1986, dated 1989).

Each structure is given as a SMILES string.

For this series, the system named is rats (Slc-ddY, male, 5 weeks old). In words: Acute toxicity (Test Example 7). It is filed as in vivo. The following applies: one week. The protocol:
Groups of two rats (Slc-ddY, male, 5 weeks old) were used as test animals.
The test animals orally received 1,000, 500, 250, 125 or 62.5 mg/kg of the test substance suspended in an aqueous solution of 5% gum arabic or subcutaneously injected with 500, 250, 125 or 62.5 mg/kg of the test substance suspended in sterilized injectable distilled water. One week after administration, general conditions and weight of the animals were examined. On the final day, the animals were sacrificed and their organs including lymph nodes were observed.

Where [1] appears, read: s.c., 500 to 6.25 mg/kg (so in the source).

In the case of `CC=CC=CC=CC(=O)NC(CC(=O)NC(C(=O)C1C(=O)NC(=O)C1C)C(C)C)c1ccccc1` (stereo not shown) [UFC-N11], under “oral, 1000 to 62.5 mg/kg”, the “general physical conditions and organs at the sacrifice” value is “no visible disorder was observed”; the mortality result is on record as “the test animals did not die”. Besides, under setting [1], the “general physical conditions and organs at the sacrifice” value is recorded as “no visible disorder was observed”; the mortality result is given as “the test animals did not die”.
